# Source: PubChem BioAssay AID758 (NMMLSC, 2007)
# Only a part is listed here, and it is no random draw. Calls of active or inactive are those of the source.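 Rule for the calls: active = fluorescent GTP binding to Rab7 beads changed by at least 20 points from the 100% baseline, either direction, mostly lower; inconclusive = compound itself probably fluorescent, or too few beads counted; inactive = the rest.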
# Tested on: Rab7 GTPase wild type (dog), Bodipy-FL-GTP binding
# Assay: modulators of GTP binding to Rab7, primary screen, biochemical, wildtype, multiplex bead flow cytometry (AID 758);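 note: median green fluorescence of bound Bodipy-FL-GTP per Rab7 bead population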
# Details: GST-Rab7 beads, fluorescent GTP binding, at 10 µM, actives lie on both sides, untreated = 100%, excess cold GTP = 0%
row,Compound,GTP binding activity (percent of control)
1,CP(=O)(Oc1ccccc1)OC(c1ccccc1)C(F)(F)F (stereo not drawn),inactive: 100%
2,Cc1cccc(C)c1OP(C)(=O)Nc1ccc(SC(F)(F)F)cc1 (stereo not drawn),inactive: 95%
3,Cc1cc(C)cc(OP(C)(=O)Nc2ccc(SC(F)(F)F)cc2)c1 (stereo not drawn),inactive: 99%
4,CP(=O)(NC(=O)Nc1ccccc1)Oc1ccccc1 (stereo not drawn),inactive: 97%
5,CCOP(C)(=S)SCC(=O)NC(C)C(=O)O (stereo not drawn),inactive: 100%
6,CCOC(=O)c1ccc(NP(C)(=O)Oc2ccc(OC)cc2)cc1 (stereo not drawn),inactive: 103%
7,CP(=O)(Nc1ccccn1)Oc1ccc(Cl)cc1 (stereo not drawn),inactive: 94%
8,CP(=S)(Nn1cnnc1)Oc1ccccc1 (stereo not drawn),inactive: 101%
9,COc1ccccc1OP(C)(=O)Nc1ccccc1 (stereo not drawn),inactive: 96%
10,CP(=O)(Nc1ccccc1Br)Oc1ccccc1 (stereo not drawn),inactive: 102%
11,Cc1cccc(C)c1OP(C)(N)=O (stereo not drawn),inactive: 102%
12,CC(C)(C)c1ccc(OP(C)(=O)Nc2ccc(SC(F)(F)F)cc2)cc1 (stereo not drawn),inactive: 102%
13,O=[N+]([O-])c1ccc2c(c1)C=Nc1ccccc1O2,inactive: 92%
14,CCOC(=O)c1ccc(NP(C)(=O)Oc2ccccc2)cc1 (stereo not drawn),inactive: 102%
15,Cc1ccc(NP(C)(=O)Oc2ccccc2)c(C)c1 (stereo not drawn),inactive: 99%
16,COc1ccccc1OP(C)(=O)Nc1ccc(C)cc1 (stereo not drawn),inactive: 101%
17,COc1ccc(OP(C)(=O)Nc2cccc(F)c2)cc1 (stereo not drawn),inactive: 96%
18,COc1ccccc1OP(C)(=O)Nc1cc(Cl)ccc1C (stereo not drawn),inactive: 97%
19,Cc1cc(C)cc(OP(C)(N)=O)c1 (stereo not drawn),inactive: 96%
20,CCN(CC)CCCOC(=O)C(O)(c1ccccc1)c1ccccc1,inactive: 104%
21,Cc1cc(C)cc(OP(C)(=O)Nc2ccc(C)cc2C)c1 (stereo not drawn),inactive: 101%
22,CCOC(=O)c1ccc(NP(C)(=O)Oc2cc(C)cc(C)c2)cc1 (stereo not drawn),inactive: 97%
23,CP(=O)(Nc1cccc(Br)c1)Oc1ccccc1 (stereo not drawn),inactive: 103%

row,Compound,GTP binding activity (percent of control)
1,Cc1cc(C)cc(OP(C)(=O)Nc2ccccn2)c1 (stereo not drawn),inactive: 106%
2,Cc1ccc(C)c(NP(C)(=O)Oc2ccccc2)c1 (stereo not drawn),inactive: 98%
3,CC1=NCCc2c1[nH]c1ccccc21.O=[N+]([O-])c1cc([N+](=O)[O-])c(O)c([N+](=O)[O-])c1,inactive: 94%
4,COc1ccccc1OP(C)(=O)Nc1c(C)cccc1C (stereo not drawn),inactive: 101%
5,CN1CCCCC1COC(=O)C1(O)c2ccccc2CCc2ccccc21 (stereo not drawn),inactive: 102%
6,CP(=O)(Nc1ccc(SC(F)(F)F)cc1)Oc1ccccc1 (stereo not drawn),inactive: 102%
7,CCCOc1ccc(NP(C)(=O)Oc2ccc(Cl)cc2)cc1 (stereo not drawn),inactive: 92%
8,O=[N+]([O-])c1cc([N+](=O)[O-])c(-n2nnc3ccccc32)c([N+](=O)[O-])c1,inactive: 92%
9,Cc1nc2ccc3ccccc3c2s1.O=[N+]([O-])c1cc([N+](=O)[O-])c(O)c([N+](=O)[O-])c1,inactive: 98%
10,CCOP(C)(=S)SCC(=O)NC(C)(CC)C(=O)O (stereo not drawn),inactive: 98%
11,CP(=O)(Nc1ccc2c(c1)OCCO2)Oc1ccccc1 (stereo not drawn),inactive: 98%
12,Cc1ccccc1NP(C)(=O)Nc1ccccc1C,inactive: 98%
13,COc1ccc(OP(C)(=O)Nc2cccc(Br)c2)cc1 (stereo not drawn),inactive: 98%
14,COc1ccc(NP(C)(=O)Oc2ccccc2OC)cc1 (stereo not drawn),inactive: 103%
15,CN(C)CCOC(=O)C(O)(c1ccccc1)C1CCCCC1 (stereo not drawn),inactive: 98%
16,O=[N+]([O-])c1cc([N+](=O)[O-])c(NCC2CCS(=O)(=O)C2)c([N+](=O)[O-])c1 (stereo not drawn),inactive: 95%
17,COc1ccc(OP(C)(=O)Nc2ccc(SC(F)(F)F)cc2)cc1 (stereo not drawn),inactive: 97%
18,CCOC(=O)c1ccc(NP(C)(=O)Oc2ccc(F)cc2)cc1 (stereo not drawn),inactive: 93%
19,CCN(CC)CCCOC(=O)C(O)(c1ccccc1)C1CCCCC1 (stereo not drawn),inactive: 98%
20,CP(=O)(Nc1ccccc1)Oc1ccc(F)cc1 (stereo not drawn),inactive: 99%
21,CP(=O)(Nc1ccccc1F)Oc1ccccc1 (stereo not drawn),inactive: 100%
22,O=C(OCCN1CCN(CCOCc2ccccc2)CC1)C(O)(c1ccccc1)c1ccccc1,inactive: 103%
23,CN(C)CCOC(=O)C(O)(c1ccccc1)C1CCCC1 (stereo not drawn),inactive: 96%

row,Compound,GTP binding activity (percent of control)
1,COc1ccc(OP(C)(=O)Nc2ccccn2)cc1 (stereo not drawn),inactive: 94%
2,O=[N+]([O-])c1cc([N+](=O)[O-])c(Nc2ccccn2)c([N+](=O)[O-])c1,inactive: 106%
3,Cc1c(NP(C)(=O)Oc2ccc(C(C)C)cc2)c(=O)n(-c2ccccc2)n1C (stereo not drawn),inactive: 101%
4,CCc1ccc(OP(C)(=O)O)cc1,inactive: 100%
5,COc1ccccc1OP(C)(=O)Nc1ccc(C)cc1C (stereo not drawn),inactive: 101%
6,CP(=O)(Nc1ccccn1)Oc1ccccc1 (stereo not drawn),inactive: 102%
7,Cc1cc(C)cc(OP(C)(=O)Nc2cccc(C(F)(F)F)c2)c1 (stereo not drawn),inactive: 96%
8,COc1ccc(OP(C)(=O)Nc2ccccc2Br)cc1 (stereo not drawn),inactive: 101%
9,COc1ccccc1OP(C)(=O)Nc1ccc(C)c(C)c1 (stereo not drawn),inactive: 98%
10,Cc1nc2ccc3ccccc3c2o1.O=[N+]([O-])c1cc([N+](=O)[O-])c(O)c([N+](=O)[O-])c1,inactive: 104%
11,CP(=O)(OCCOc1ccccc1)OCCOc1ccccc1,inactive: 105%
12,CP(=O)(Nc1ccc(Cl)cc1Cl)Oc1ccccc1 (stereo not drawn),inactive: 96%
13,CP(=O)(OC12CC3CC(CC(C3)C1)C2)OC12CC3CC(CC(C3)C1)C2,inactive: 104%
14,CCOC(=O)c1ccc(NP(C)(=O)Oc2ccc(Cl)cc2)cc1 (stereo not drawn),inactive: 96%
15,COc1ccc(OP(C)(=O)Nc2ccc(Br)cc2)cc1 (stereo not drawn),inactive: 97%
16,CCN(CC)CC(O)COC(=O)C(O)(c1ccccc1)C1CCCCC1 (stereo not drawn),inactive: 100%
17,CCc1ccc(OP(C)(=O)Nc2cccnc2)cc1 (stereo not drawn),inactive: 95%
18,CP(=O)(Oc1ccccc1)N1CCOC1=O (stereo not drawn),inactive: 98%
19,CP(=O)(Nc1ccc(Cl)cc1)Oc1ccc(F)cc1 (stereo not drawn),inactive: 96%
20,CC(C)(C)c1ccc(OP(C)(=O)O)cc1,inactive: 110%
21,COc1ccccc1OP(C)(=O)Nc1ccccc1Br (stereo not drawn),inactive: 104%
22,CN(C)C(=O)c1c([N+](=O)[O-])cc([N+](=O)[O-])cc1[N+](=O)[O-],inactive: 107%
